For this assay, the system named is THP-1 cells. The assay can be described thus: inhibition of the binding of bCRP to THP-1 cells. Set-up: species or system human. The settings on record: non-washed assay; fragment 174-185 at 100 μgs (˜128 M solution), not repeated; other fragments up to 200 μgs. The source says: Staining proceeded using the previously determined optimal non-washed conditions. […] All other staining conditions were as previously described using bHSA as the control.

We go through one substance from US6872541B2, “Method and compositions for analysis of pentraxin receptors as indicators of disease” (Coulter International Corp., priority 2001, dated 2005).

As for “HSA: Human Serum Albumin >99% purity, control inhibitor”, the “inhibition of bCRP binding to THP-1 cells (in words)” value is listed as “no inhibition”.
